Results on two molecules are retold here after patent US7427591B2, “Suppression of immune response via inhibition of cathepsin S” (Massachusetts Institute of Technology, priority 1996, dated 2008).

The experiment concerns Ii processing in HOM2 cells. Put plainly: 35S pulse/chase of HOM2 cells, Tu36 immunoprecipitation, SDS-PAGE: Ii processing and SDS-stable class II peptide complexes. The class given is cell-based, human. Conditions: 5 hour chase. The source says: Lysates were precleared with protein A-agarose.
Samples were eluted with SDS-PAGE sample buffer.

Consider `CC(C)[C@H](NC(=O)[C@H](Cc1ccccc1)C[C@H](O)[C@H](Cc1ccccc1)NC(=O)OC(C)(C)C)C(=O)N[C@@H](Cc1ccccc1)C(=O)N1CCOCC1` [CGP 53437], for which, under “5 μM or 50 μM CGP 53437”, the SDS-stable complexes entry is listed as “nor did it produce a decrease in SDS-stable complexes” and the “accumulation of Ii fragments” value is reported as “did not result in accumulation of Ii fragments”. On to `CC(C)C[C@H](NC(=O)N1CCOCC1)C(=O)N[C@H](/C=C/S(=O)(=O)c1ccccc1)CCc1ccccc1` [LHVS, morpholinurea-leucine-homophenylalanine-vinylsulfone phenyl], for which the “formation of SDS-stable complexes (peptide loading)” value (1 nM and S nM LHVS) is “marked decrease in formation of SDS-stable complexes”.
